Test results: patent US9067935B2 (Janssen Pharmaceutica, NV, priority 2010, dated 2015)

Chains of the proteins cited; added tags and fusions are not shown. Residues count along the entry.
UniProt Q1A7N1, 1-1104: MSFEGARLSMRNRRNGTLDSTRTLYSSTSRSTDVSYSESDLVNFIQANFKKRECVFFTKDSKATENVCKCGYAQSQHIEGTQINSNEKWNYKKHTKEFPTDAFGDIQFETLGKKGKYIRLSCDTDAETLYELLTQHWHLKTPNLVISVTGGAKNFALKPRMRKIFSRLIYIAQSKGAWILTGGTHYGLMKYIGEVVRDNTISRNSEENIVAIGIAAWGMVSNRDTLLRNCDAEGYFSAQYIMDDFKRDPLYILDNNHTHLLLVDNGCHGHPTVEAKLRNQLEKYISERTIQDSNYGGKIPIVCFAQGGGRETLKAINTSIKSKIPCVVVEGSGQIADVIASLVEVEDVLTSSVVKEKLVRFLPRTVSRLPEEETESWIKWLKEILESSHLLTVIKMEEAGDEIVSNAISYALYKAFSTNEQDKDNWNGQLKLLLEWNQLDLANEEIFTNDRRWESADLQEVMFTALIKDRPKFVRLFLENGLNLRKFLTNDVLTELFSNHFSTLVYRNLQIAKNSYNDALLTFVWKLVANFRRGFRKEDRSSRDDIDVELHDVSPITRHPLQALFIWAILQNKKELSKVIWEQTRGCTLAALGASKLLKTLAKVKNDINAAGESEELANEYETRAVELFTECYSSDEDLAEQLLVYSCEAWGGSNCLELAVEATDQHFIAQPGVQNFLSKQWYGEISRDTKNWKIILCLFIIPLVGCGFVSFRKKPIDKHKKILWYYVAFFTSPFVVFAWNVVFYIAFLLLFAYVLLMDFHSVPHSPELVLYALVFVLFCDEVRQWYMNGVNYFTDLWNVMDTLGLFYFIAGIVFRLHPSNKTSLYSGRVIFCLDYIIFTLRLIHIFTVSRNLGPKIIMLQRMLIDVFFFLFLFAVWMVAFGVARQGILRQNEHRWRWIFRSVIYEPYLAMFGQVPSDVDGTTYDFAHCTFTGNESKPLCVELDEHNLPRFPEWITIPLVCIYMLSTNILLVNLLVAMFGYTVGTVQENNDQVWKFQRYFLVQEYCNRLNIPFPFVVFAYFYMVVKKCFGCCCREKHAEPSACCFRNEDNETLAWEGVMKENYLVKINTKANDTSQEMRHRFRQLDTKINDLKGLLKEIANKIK

molecular target: canine TRPM8 (Canis lupus familiaris, UniProt Q1A7N1); assay: In Vitro Canine TRPM8 Functional Assay (intracellular Ca2+ fluorescence, icilin challenge); format: cell-based; conditions: HEK293 cells stably expressing canine TRPM8; icilin at ~80% maximal response
Description: The functional activity of compounds of the formula (I) was determined by measuring changes in intracellular calcium concentration using a Ca^2+-sensitive fluorescent dye. The changes in fluorescent signal were monitored by a fluorescence plate reader, either a FLIPR™ (Molecular Devices) or FDSS (Hamamatsu).
At 24 hrs prior to assay, HEK293 cells stably expressing canine TRPM8 were seeded in culture medium in black wall, clear-base poly-D-lysine coated 384-well plates (BD Biosciences, NJ, USA) and grown overnight in 5% CO2 at 37° C. On assay day, growth media was removed and cells were loaded with Calcium 3 Dye (Molecular Devices) for 35 min at 37° C., under 5% CO2 and then for 25 min at room temperature and atmosphere. Subsequently, cells were tested for agonist-induced increases in intracellular Ca^2+ levels using FLIPR™ or FDSS. Cells were challenged with a compound of the Formula (I) (at varying concentrations) and intracellular Ca^2+ was measured for 5 min prior to the addition of icilin to all wells to achieve a final concentration that produces approximately an 80% maximal response. EC50 or IC50 values for compounds of the present invention were determined from eight-point dose-response studies. Curves were generated using the average of quadruplicate wells for each data point.

SMILES	IC50 [nM]
O=S(=O)(c1ccccc1)N(Cc1ccccc1)c1nc2ccc(Cl)cn2c1Cl [Compound 17]	74.3
CCc1c(N(CCC(F)(F)F)S(=O)(=O)c2ccccc2)nc2c(C(F)(F)F)cccn12 [Compound 66]	77.4
O=S(=O)(c1ccccc1)N(Cc1cccc(C(F)(F)F)c1)c1nc2ccccn2c1C1CC1 [Compound 73]	37.2
